# Assay outcomes (PubChem)
# Most compounds without a hit are left out; they make up all but 3.7% or so of the library.
# miR-21 reporter – raises the signal of a miR-21 reporter | AID 2288 | 340,000 tested, under 10 active | Potency, µM (series often up to 38.3 µM), without a hit: at the highest dose reporter change, positive = more light | HeLa miR-21 FLuc reporter, luciferase, 48 h; active = well fitted rising curve with a large enough effect; inconclusive = small, poorly fitted or top-dose-only effect; inactive = no such curve, though single readings can be large or run the other way;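 further: % of control where 0% means no effect; miR-21 action dims this reporter so a rising signal means less miR-21 action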
#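 Luminescence from a firefly luciferase reporter carrying a miR-21 binding site downstream, stably expressed under a CMV promoter in HeLa cells that make miR-21 endogenously, reports miRNA modulation after 48 h compound exposure up to approximately 40uM final.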
# A549 tox – kills or reduces viability of A549 cells in Nrf2 counter-screen; A549 ARE-Fluc cells, CellTiter-Fluor viability, 18-24 h; 390,000 tested, 0.16% active; AID 504648; Potency, µM (doses to about 46 µM), without a hit: at the highest dose activity change, negative = cytotoxicity, usual class: inhibitors; note: potency is the fitted concentration of half-maximal effect; % is set by controls: 0 for no effect and ±100 for the full control effect
#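 A549 ARE-Fluc cells in 5% FBS OPTI-MEM, 5000 cells/well, rested 2 h then exposed to compounds in concentration-response for 18-24 h at 37 °C. Viability by CellTiter-Fluor fluorescence (Ex 405/Em 525) after 30 min; luciferase luminescence (BugLite, 15 min, RT) read afterwards.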
# TCR activator – T cell receptor activation | primary human leukocytes, anti-CD3, IL-2 HTRF, 48 h | 330,000 tested, under 10 active | Potency, µM (doses to about 9.22 µM), inactives show top-dose activation of IL-2 secretion, actives largely listed as activators; note: % of control where 0% means no effect
#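 TCR engagement came from a-CD3 beads alone, with compounds added to primary human leukocytes for 48 hr. Secreted IL-2 bridged europium cryptate- and d2-labelled anti-IL-2 antibodies, giving FRET emission at 665nm after 320nm excitation.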
# Nrf2 ARE act – activates Nrf2 signaling; 410,000 tested, 0.31% active; Potency, µM (titrated, usually from 46.1 µM), for inactives: top-dose activation, most hits filed as activators; AREc32 ARE-luciferase reporter (MCF7-derived line), luminescence, 24 h; AID 624171; note: potency is the fitted concentration of half-maximal effect; % of control where 0% means no effect; nearly all actives have a fitted effect of over 65% in size
#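 Nrf2 activation is followed as ARE-luciferase induction in the AREc32 line after one day of compound treatment; luminescence is read with Steady-Glo.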
# Nrf2 inh – inhibitors of Nrf2 signaling. A549 ARE-Fluc reporter, luciferase luminescence, 18-24 h. Potency, µM (top dose mostly 46 µM), for inactives: at the highest dose activity change, negative = inhibition, usual class: inhibitors. 360,000 tested, 2.1% active. AID 504444; note: potency is the fitted concentration of half-maximal effect; % is set by controls: 0 for no effect and ±100 for the full control effect; nearly all actives have a fitted effect of over 60% in size
#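 In this cell-based qHTS, ARE-driven firefly luciferase in A549 cells reports Nrf2 activity; the luminescent signal after BugLite lysis is the measured value, with a prior CellTiter-Fluor read for cell health.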
# ClpP mod – qHTS Assay for Activators of ClpP; 340,000 tested, 1.9% active; AID 651965, 2013; ATP-dependent Clp protease proteolytic subunit (Bacillus subtilis (strain 168)), P80244; purified B. subtilis ClpP, FRET peptide cleavage, 20 min; Potency, µM (top dose mostly 57.5 µM), for the others: at the highest dose activity change, negative = active; active = well fitted falling curve with a large enough effect; inconclusive = small, poorly fitted or top-dose-only effect; inactive = no such curve, though single readings can be large or run the other way; note: potency is the fitted concentration of half-maximal effect; the source files actives as falling curves though it sought activators and does not explain the sign; nearly all actives have a fitted effect of over 65% in size
#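 Buffer: 100 mM Tris/HCl pH8, 100 mM KCl, 0.05% low protease BSA, 2.5% glycerol, 0.01% Tween-20. ClpP 10 microg/mL final; 20 min RT; delta FRET normalized to ADEP and DMSO controls.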
# * = called active by the depositor; ? = inconclusive; . = no result given; [ ] = remark or other dose. Unless noted, calls come from the whole dose curve; as a rule, active = well fitted curve in the direction sought with a large enough effect; inconclusive = small, poorly fitted or top-dose-only effect, or another doubt; inactive = no such curve, though single readings can be large; an effect the other way counts as inactive or inconclusive.
1: C=C(C)Cn1c(CCNC(=O)C(C)C)nc2ccccc21
2: Cc1ccc(CCNC(=O)c2ccc3c(c2)c(C)c(C)n3Cc2ccccc2)cc1
3: CCc1cccc(NC(=O)c2ccc3c(c2)c(C)c(C)n3Cc2ccc(F)cc2)c1
4: CCc1ccc(NC(=O)c2ccc3c(c2)c(C)c(C)n3Cc2ccccc2)cc1
5: C=C(C)Cn1c(CCNC(=O)CC)nc2ccccc21
6: O=C(C[C@@H]1C/C=C/CC[C@H](Cc2ccc(F)cc2)C(=O)OCCNC1=O)N[C@H](CO)Cc1ccccc1
7: COc1ccccc1C(=O)Nc1ccc(OCc2cc(=O)n3ccsc3n2)cc1
8: COc1cc(NC(=O)CN(c2ccc(C)cc2)S(=O)(=O)c2cccc3nonc23)cc(OC)c1

entry no.,1,2,3,4,5,6,7,8
A549 tox,0%,7%,-4%,-16%,1%,1%,0%,8%
Nrf2 inh,-6%,-15%,-18%,?,-14%,?,?,-17%
TCR activator,16%,.,.,.,1%[46.1 µM],-6%,.,.
ClpP mod,0%,22µM*,20µM*,22µM*,32µM*,-1%,1%,-3%
miR-21 reporter,-7%,-2%,15%,16%,-11%,.,-18%,0%
Nrf2 ARE act,0%,-1%,0%,0%,0%,5%,0%,4%

# Entries of single compounds, quoted from the list. Order of screens: A549 tox, Nrf2 inh, TCR activator, ClpP mod, miR-21 reporter, Nrf2 ARE act
# C=C(C)Cn1c(CCNC(=O)C(C)C)nc2ccccc21 as listed: 0%, -6%, 16%, 0%, -7%, 0%
# CCc1ccc(NC(=O)c2ccc3c(c2)c(C)c(C)n3Cc2ccccc2)cc1 as listed: -16%, ?, ., 22µM*, 16%, 0%
# Cc1ccc(CCNC(=O)c2ccc3c(c2)c(C)c(C)n3Cc2ccccc2)cc1 as listed: 7%, -15%, ., 22µM*, -2%, -1%
# COc1cc(NC(=O)CN(c2ccc(C)cc2)S(=O)(=O)c2cccc3nonc23)cc(OC)c1 as listed: 8%, -17%, ., -3%, 0%, 4%

# Next part:
9: COc1cccc(CNC(=O)c2ccc3c(c2)c(C)c(C)n3Cc2ccccc2)c1
10: CCn1nc(C)c(/C=N/NC(=O)c2ccc3c(c2)c(C)c(C)n3Cc2ccccc2)c1C
11: Cc1c(C)n(Cc2ccc(F)cc2)c2ccc(C(=O)Nc3ccc(Cl)cc3)cc12
12: Cc1ccc(Cn2c(CCNC(=O)c3cccc(C)c3)nc3ccccc32)cc1
13: CCOc1ccc(NC(=O)c2ccc3c(c2)c(C)c(C)n3Cc2ccc(F)cc2)cc1
14: CCc1ccc(CNC(=O)c2ccc3c(c2)c(C)c(C)n3Cc2ccccc2)cc1
15: Cc1cc(C)c(C(=O)N(C)C2CCCN(Cc3ccccc3F)C2)o1 (stereo unspecified)
16: COc1ccc(S(=O)(=O)Nc2ccc3c(c2)sc(=O)n3C)cc1Cl

entry no.,9,10,11,12,13,14,15,16
A549 tox,-5%,3%,-4%,-20%,-18%,-14%,-14%,7%
Nrf2 inh,?,?,-9%,?,-3%,?,-11%,.
TCR activator,.,-6%,.,.,.,.,2%,.
ClpP mod,?,10µM*,32µM*,22µM*,?,25µM*,-2%,-4%
miR-21 reporter,4%,-11%,28%,17%,18%,4%,7%,29%
Nrf2 ARE act,8%,6%,1%,-1%,-1%,-1%,0%,10%

17: Cc1cc(-c2ccccc2)nc(N2CCC(C(=O)NCc3ccccc3Cl)CC2)n1
18: C=CCNC(=O)C1CCN(c2nc(C)cc(-c3ccccc3)n2)CC1
19: COc1cc(OC)cc(C(=O)Nc2cc(-c3nc4cc(Cl)ccc4o3)ccc2Cl)c1
20: CN(C)c1ccnc(-n2cccc2/C=N/OCc2ccccc2)c1C#N
21: CCCCc1ccc(NC(=O)CSc2nc3ccccc3nc2N2CCOCC2)cc1
22: COc1ccc(C(=O)N2CCN(C)C(=O)[C@@H]2C)cc1OC1CCN(C(C)=O)CC1
23: CCN(CC)CC(O)COc1ccc2c(c1)OCO2 (stereo unspecified)
24: COCCn1c(-c2ccccc2Cl)nc2c(c(=O)c3ccccc3n2C)c1=O

entry no.,17,18,19,20,21,22,23,24
A549 tox,.,-6%[1.84 µM],0%,-15%,-8%,-5%,2%,2%
Nrf2 inh,.,?,13%,.,?,1%,.,12%
TCR activator,3%[46.1 µM],.,.,4%,.,-3%,-2%,2%[46.1 µM]
ClpP mod,.,25µM*,-8%,14µM*,-5%,32µM*,13µM*,18µM*
miR-21 reporter,-30%,-42%,-54%,-8%,1%,0%,-4%,-3%
Nrf2 ARE act,.,1%,8%,-1%,0%,0%,0%,0%

25: Cc1ccc(NC(=O)C2(S(=O)(=O)c3ccc(Cl)cc3)CC2)c(Br)c1
26: COc1ccc2oc(C(=O)OCC(=O)N3CCN(C(C)=O)CC3)c(C)c2c1
27: CCOc1ccc2oc(C(=O)OCC(=O)N3CCCC(C)C3)c(C)c2c1 (stereo unspecified)
28: COc1ccc2oc(C(=O)OCC(=O)N3CCCC(C)C3)c(C)c2c1 (stereo unspecified)
29: COc1ccc2oc(C(=O)OCC(=O)N3CCCCC3)c(C)c2c1
30: Cc1ccc(N2C(=O)N(CC(=O)Nc3ccccc3C(F)(F)F)C(=O)C2C)cc1 (stereo unspecified)
31: COc1ccc(CNC(=O)c2cc(COc3c(F)cccc3F)on2)cc1OC
32: O=C(NCc1ccc(F)cc1F)c1cc(COc2c(F)cccc2F)on1

entry no.,25,26,27,28,29,30,31,32
A549 tox,9%,0%,-1%,-16%,2%,-3%,-15%,3%
Nrf2 inh,27%,3%,?,-24%,15%,0%,26µM*,6%
TCR activator,0%,-2%,-23%,-12%,1%,-4%,-2%,7%
ClpP mod,.,25µM*,28µM*,14µM*,.,16µM*,-3%,18µM*
miR-21 reporter,-4%,.,.,.,.,.,2%,-6%
Nrf2 ARE act,0%,1%,7%,0%,2%,0%,0%,-1%

33: CC1CCN(c2oc(-c3ccc(OCc4ccccc4Cl)cc3)nc2C#N)CC1
34: COc1cc(CN(C(=O)COc2ccc(Cl)cc2)c2ccccn2)cc(OC)c1OC
35: CCOC(=O)CC(=O)CSc1nc2ccccc2c(=O)n1CCc1ccc(S(N)(=O)=O)cc1
36: CCCNC(=O)COc1nc2ccccc2nc1N1CCOCC1
37: CC1Cc2ccccc2N1C(=O)COc1nc2ccccc2nc1N1CCOCC1 (stereo unspecified)
38: Cc1ccc(C)c2c(C)ccnc12
39: CN(CC(=O)Nc1cccc(S(=O)(=O)NC2=NCCCCC2)c1)Cc1ccc(C(C)(C)C)cc1
40: O=C(COC(=O)c1ccccc1NCCO)Nc1ccc(S(=O)(=O)NC2=NCCCCC2)cc1
41: O=C(Cc1csc(-c2ccc(Cl)cc2)n1)Nc1cccc(S(=O)(=O)NC2=NCCC2)c1
42: O=C(COC(=O)c1ccccc1)Nc1cccc(S(=O)(=O)NC2=NCCCCC2)c1
43: CC(C)(C)c1ccc(OCCC(=O)Nc2cccc(S(=O)(=O)NC3=NCCCCC3)c2)cc1

entry no.,33,34,35,36,37,38,39,40,41,42,43
A549 tox,-5%,1%,-1%,-8%,-15%,.,-18%,15%,?,-1%,?
Nrf2 inh,-6%,2%,.,8%,0%,.,-23%,-2%,23µM*,17%,18µM*
TCR activator,.,.,.,1%[46.1 µM],-4%,.,10%,2%,4%,6%[46.1 µM],9%
ClpP mod,4%,-2%,4%,-1%,28µM*,5%,.,14µM*,-9%,3%,.
miR-21 reporter,.,-6%,28%,-7%,-7%,.,8%,.,.,-1%,.
Nrf2 ARE act,.,4%,-1%,0%,0%,.,3%,3%,1%,1%,0%
